Source: PubChem BioAssay AID624304 (Sanford-Burnham Center for Chemical Genomics, 2012)
The list shows a part of the results, in another mix than the full data. Activity calls are given as the source filed them.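 Rule for the calls: active = interference check ratio from 0.5 to 1.5 plus GFP to RFP signal ratio inhibition reaching or exceeding a fixed threshold (cut at about 30% in these data, passing the limit was not always enough); inactive = the rest.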

assay: suppressors of acrylamide-induced Pgst-4::GFP reporter in worms, primary screen, SKN-1 inhibitor project, whole organism, uHTS, GFP/RFP fluorescence ratio, strain VP596 (AID 624304); settings: C. elegans VP596 Pgst-4::GFP/RFP ratio, 24 h, at 21.8 µM, hits give high values

SMILES	inhibition
Cc1c(C(c2ccc3c(c2)OCO3)c2c(C)n(C)n(-c3ccccc3)c2=O)c(=O)n(-c2ccccc2)n1C.O=[N+]([O-])c1cc([N+](=O)[O-])c(O)c([N+](=O)[O-])c1	inactive: -15.2%
O=[N+]([O-])c1ccc(OP2(=O)COCCO2)cc1 (stereo not given)	inactive: 3.17%
O=[N+]([O-])c1cc([N+](=O)[O-])c(NCC2CCS(=O)(=O)C2)c([N+](=O)[O-])c1 (stereo not given)	inactive: 6.27%
Cc1cc(-c2cccc3ccccc23)c(C)cn1.O=[N+]([O-])c1cc([N+](=O)[O-])c(O)c([N+](=O)[O-])c1	inactive: 1.6%
CCOC(=O)C(CC)C1=NC(C)(C)Cc2ccccc21.O=[N+]([O-])c1cc([N+](=O)[O-])c(O)c([N+](=O)[O-])c1 (stereo not given)	inactive: -9.2%
CC1=C2N=C(C=C3N=C(C(C)=C4[N-][C@@](C)([C@@H]5N=C1[C@](C)(CCC(=O)NC[C@@H](C)OP(=O)([O-])O[C@H]1[C@@H](O)[C@@H](n6cnc7cc(C)c(C)cc76)O[C@@H]1CO)[C@H]5CC(N)=O)[C@@](C)(CC(N)=O)[C@@H]4CCC(N)=O)[C@@](C)(CC(N)=O)[C@@H]3CCC(N)=O)C(C)(C)[C@@H]2CCC(N)=O.[C-]#N.[Co+3]	inactive: 3.75%
O=[N+]([O-])c1cc([N+](=O)[O-])c(Nc2nnnn2CCO)c([N+](=O)[O-])c1	inactive: 16.7%
COc1ccc(-c2ccccn2)cc1.O=[N+]([O-])c1cc([N+](=O)[O-])c(O)c([N+](=O)[O-])c1	inactive: 1.99%
CCCOc1ccc(NP(C)(=O)Oc2ccc(Cl)cc2)cc1 (stereo not given)	inactive: 10.1%
CP(=O)(Nc1ccc(SC(F)(F)F)cc1)Oc1ccccc1 (stereo not given)	inactive: 21.2%
CN1CCCCC1COC(=O)C1(O)c2ccccc2CCc2ccccc21 (stereo not given)	inactive: -3.57%
COc1ccccc1OP(C)(=O)Nc1c(C)cccc1C (stereo not given)	inactive: 6.36%
CN(Cc1cccnc1)C(=O)COc1ccc(Cl)c(Cl)c1.O=[N+]([O-])c1cc([N+](=O)[O-])c(O)c([N+](=O)[O-])c1	inactive: -3.07%
O=[N+]([O-])c1cc([N+](=O)[O-])c(-n2nnc3ccccc32)c([N+](=O)[O-])c1	inactive: -6.1%
Cc1nc2ccc3ccccc3c2s1.O=[N+]([O-])c1cc([N+](=O)[O-])c(O)c([N+](=O)[O-])c1	inactive: 9.38%
O=[N+]([O-])c1cc([N+](=O)[O-])c(-c2cnn(-c3ccccc3)c2)c([N+](=O)[O-])c1	inactive: 9.99%
CCOC(=O)c1ccc(NP(C)(=O)Oc2cc(C)cc(C)c2)cc1 (stereo not given)	inactive: 15.6%
Cc1cc(C)cc(OP(C)(=O)Nc2ccc(C)cc2C)c1 (stereo not given)	inactive: 7.25%
COc1ccccc1OP(C)(=O)Nc1cccc(Br)c1 (stereo not given)	inactive: 9.37%
Cc1ccc(C)c(NP(C)(=O)Oc2ccccc2)c1 (stereo not given)	inactive: 24.2%
Cc1cc(C)cc(OP(C)(=O)Nc2ccccn2)c1 (stereo not given)	inactive: 7.52%
CP(=O)(Nc1cccc(Br)c1)Oc1ccccc1 (stereo not given)	inactive: -14.7%
O=C(O)c1cccc(Nc2c([N+](=O)[O-])cc([N+](=O)[O-])cc2[N+](=O)[O-])c1	inactive: 12%
CC1=NCCc2c1[nH]c1ccccc21.O=[N+]([O-])c1cc([N+](=O)[O-])c(O)c([N+](=O)[O-])c1	inactive: -15.3%
O=[N+]([O-])c1ccc2c(c1)C=Nc1ccccc1O2	inactive: 2.6%

SMILES	inhibition
Cc1cccc(C)c1OP(C)(N)=O (stereo not given)	inactive: 3.13%
CC(C)(C)c1ccc(OP(C)(=O)Nc2ccc(SC(F)(F)F)cc2)cc1 (stereo not given)	inactive: 3.93%
O=[N+]([O-])c1cc([N+](=O)[O-])c(Nc2cccnc2)c([N+](=O)[O-])c1	inactive: -1.87%
Cc1cc(C)cc(OP(C)(N)=O)c1 (stereo not given)	inactive: 1.04%
COc1ccc(OP(C)(=O)Nc2cccc(F)c2)cc1 (stereo not given)	inactive: 26.3%
COc1ccccc1OP(C)(=O)Nc1cc(Cl)ccc1C (stereo not given)	inactive: 3.59%
Cc1ccc(NP(C)(=O)Oc2ccccc2)c(C)c1 (stereo not given)	inactive: 21.6%
COc1ccccc1OP(C)(=O)Nc1ccc(C)cc1 (stereo not given)	inactive: 19.9%
CCOC(=O)c1ccc(NP(C)(=O)Oc2ccccc2)cc1 (stereo not given)	inactive: -2.9%
CCN(CC)CCCOC(=O)C(O)(c1ccccc1)c1ccccc1	inactive: -0.698%
COc1ccccc1-c1ccccn1.O=[N+]([O-])c1cc([N+](=O)[O-])c(O)c([N+](=O)[O-])c1	inactive: 4.47%
Cc1cc(C)cc(OP(C)(=O)Nc2ccc(SC(F)(F)F)cc2)c1 (stereo not given)	inactive: -6.53%
CP(=O)(NC(=O)Nc1ccccc1)Oc1ccccc1 (stereo not given)	inactive: -4.32%
CCc1ccc(OP(C)(=O)N2CCN(c3ccc([N+](=O)[O-])cc3)CC2)cc1 (stereo not given)	inactive: 5.46%
CP(=O)(Oc1ccccc1)OC(c1ccccc1)C(F)(F)F (stereo not given)	inactive: 4.3%
CP(=O)(Nc1ccc(SC(F)(F)F)cc1)Oc1ccc(Cl)cc1 (stereo not given)	inactive: 32.1%
Cc1cccc(C)c1OP(C)(=O)Nc1ccc(SC(F)(F)F)cc1 (stereo not given)	inactive: 3.79%
Cc1ccc(Nc2c([N+](=O)[O-])cc([N+](=O)[O-])cc2[N+](=O)[O-])cc1	inactive: 9.11%
CP(=O)(Nc1ccccn1)Oc1ccc(Cl)cc1 (stereo not given)	inactive: 6.04%
O=[N+]([O-])c1cc([N+](=O)[O-])c(O)c([N+](=O)[O-])c1.c1ccc(Oc2ccncc2)cc1	inactive: -6.22%
CCOC(=O)c1ccc(NP(C)(=O)Oc2ccc(OC)cc2)cc1 (stereo not given)	inactive: 8.18%
CCOP(C)(=S)SCC(=O)NC(C)C(=O)O (stereo not given)	inactive: -16.3%
CP(=O)(Nc1ccccc1Br)Oc1ccccc1 (stereo not given)	inactive: 12.6%
COc1ccccc1OP(C)(=O)Nc1ccccc1 (stereo not given)	inactive: 1.35%
CP(=S)(Nn1cnnc1)Oc1ccccc1 (stereo not given)	inactive: 7.56%
